The record followed here is ChEMBL document CHEMBL3425429.

A short description of test [1]: Cytotoxicity against human MM1S cells assessed as cell viability after 72 hrs by MTT assay. Type of test: functional, cell-based. To be noted: MM1.S. On the technique in general: Formazan colour is commonly taken as a measure of viable cells.
In another test the test system is HepG2. In words: cells. As to conditions: Homo sapiens, HepG2, 72 h.
For the next test, the system named is THP-1. In words: Cytotoxicity against human THP1 cells assessed as cell viability after 72 hrs by MTT assay. As to conditions: THP-1, 72 h. Type of test: functional, cell-based.
A further test concerns NCI-H358. Nature of the test: Cytotoxicity against human NCI-H358 cells assessed as cell viability after 72 hrs by MTT assay. Type of test: functional, cell-based. To be noted: NCI-H358, 72 h.
Test [2] is described as follows: Cytotoxicity against human PANC1 cells assessed as cell viability after 72 hrs by MTT assay. It is filed as functional, cell-based. To be noted: PANC-1, 72 h.
In a further test the test system is HeLa. In words: Cytotoxicity against human HeLa cells assessed as cell viability after 72 hrs by MTT assay. Type of test: functional, cell-based.
A short description of test [3]: Cytotoxicity against human U87MG cells assessed as cell viability after 72 hrs by MTT assay. To be noted: U-87 MG. Type of test: functional, cell-based, U-87MG ATCC.
A short description of test [4]: Cytotoxicity against human OCI-LY10 cells assessed as cell viability after 72 hrs by MTT assay. As to conditions: OCI-Ly10, 72 h. Type of test: functional, cell-based.
The nature of test [5]: Cytotoxicity against human SKBR3 cells assessed as cell viability after 72 hrs by MTT assay. Type of test: functional, cell-based. As to conditions: SK-BR-3, 72 h.
A further test concerns A2058. Nature of the test: Cytotoxicity against human A2058 cells assessed as cell viability after 72 hrs by MTT assay. To be noted: A2058, 72 h. Type of test: functional, cell-based.

Usually IC50 stands for the concentration that inhibits the measured activity by half.

Take `CCn1nc(C#Cc2cc(C(=O)Nc3ccc(CN4CCN(C)CC4)c(C(F)(F)F)c3)ccc2C)c2c(N)ncnc21`: the IC50 in test [1] amounted to 0.872 µM; with HepG2, 8.67 µM; in the test with THP-1, 5.11 µM; in the test on NCI-H358, 1.67 µM; in [2], 6.56 µM; with HeLa, 5.41 µM. Besides, the IC50 in test [3] was determined as 0.742 µM; in test [4], 2.17 µM; in [5], 4.52 µM; with A2058, 1.91 µM.
